Measured values from ChEMBL document CHEMBL4673243, “Discovery of 9-Cyclopropylethynyl-2-((S)-1-[1,4]dioxan-2-ylmethoxy)-6,7-dihydropyrimido[6,1-a]isoquinolin-4-one (GLPG1205), a Unique GPR84 Negative Allosteric Modulator Undergoing Evaluation in a Phase II Clinical Trial” (J Med Chem, 2020).
Each block holds one molecule with its values, some of them ahead of it. Calls of active or inactive are those of the source. The calls are words filed in the database; no cut-off is given here.

Protein sequences, listed by entry. Tags and fused reporters are not part of them. Lines headed by an entry give the natural chain unless they say otherwise; changes in a name come on top.
UniProt Q9NQS5: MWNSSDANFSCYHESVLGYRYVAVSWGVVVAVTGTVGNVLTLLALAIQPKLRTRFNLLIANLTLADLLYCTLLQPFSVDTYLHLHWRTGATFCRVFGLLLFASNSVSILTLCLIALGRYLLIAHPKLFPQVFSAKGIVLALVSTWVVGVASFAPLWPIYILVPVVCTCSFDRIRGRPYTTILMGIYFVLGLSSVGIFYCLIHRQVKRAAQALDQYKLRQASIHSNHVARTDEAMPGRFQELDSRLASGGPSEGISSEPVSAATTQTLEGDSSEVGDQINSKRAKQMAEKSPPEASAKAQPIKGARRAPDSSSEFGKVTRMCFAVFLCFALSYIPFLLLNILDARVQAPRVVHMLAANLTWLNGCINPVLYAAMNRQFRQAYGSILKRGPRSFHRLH

Tests used:
[1] = target: G-protein coupled receptor 84 (Homo sapiens) (UniProt Q9NQS5); test: Displacement of [3H]-9-(2-phenylethyl)-2-(2-pyrazin-2-yloxyethoxy)-6,7-dihydropyrimido[6,1-a]isoquinolin-4-one from recombinant FLAG-tagged GPR84 (unknown origin) expressed in T-REx-293 cells co-expressing Galphai2 incubated for 1 hr by liquid scintillation counting analysis; format: cell-based
[2] = tested on: Mus musculus; test: Antiinflammatory activity in Balb/cj mouse model of DSS-induced colitis assessed as reduction in DAI score at 3 to 10 mg/kg, po qd using PEG-200/water formulation administered starting from day 1 to 11 and measured everyday; format: functional, organism-based; details: dose 3-10 mg/kg, time 1-11 day
[3] = tested on: Mus musculus; test: Antiinflammatory activity in Balb/cj mouse model of DSS-induced colitis assessed as reduction in neutrophil infiltration in colon at 3 to 10 mg/kg, po qd using PEG-200/water formulation administered from day 1 to 11 by immunohistochemistry analysis; format: functional, organism-based; details: dose 3-10 mg/kg, time 1-11 day
[4] = tested on: Mus musculus; test: Antiinflammatory activity in po dosed Balb/cj mouse model of DSS-induced colitis assessed as reduction in DAI score administered starting administered once daily for 11 days measured during compound dosing; format: functional, organism-based; details: time 11.0 day

Activity [1]: inactive
SMILES: CCCCCCCCCC(=O)O

Activity ([1]; filed as negative allosteric modulator): Active
SMILES: Fc1cc(F)c2[nH]cc(Cc3c[nH]c4c(F)cc(F)cc34)c2c1

SMILES: O=c1nc(OC[C@@H]2COCCO2)cc2n1CCc1cc(C#CC3CC3)ccc1-2 [GLPG-1205]
Activity [2]: Active | Activity [3]: Active

SMILES: O=c1nc(OCC2COCCO2)cc2n1CCc1cc(C#CC3CC3)ccc1-2 (racemic)
Activity [4]: Dose-dependent effect
